# Measurements reported in patent US20070049514A1, “Resonance modulator for diagnosis and therapy” (priority 2003, published 2007).
# Test system: T-lymphocytes (CD markers)
# Assay: A-007 0.25% gel intravaginally, T-cell profile (tissue/blood)
# Format: in vivo, Humans
# Details: 2 grams of 0.25% gel per day for 5 days
compound,measurement,value
"O=[N+]([O-])c1ccc(NN=C(c2ccc(O)cc2)c2ccc(O)cc2)c([N+](=O)[O-])c1 [Compound A-007, 4,4′-dihydroxybenzophenone-2,4-dinitrophenylhydrazone]",staining for CD45RO+ lymphocytes (activated) in HPV infected cervical epithelium,becomes very intense
